E-selectin induc = E-selectin induction in HUVECs, primary screen, imaging, HUVEC, immunofluorescence imaging, single point | P16581 | normalized: neutral wells 0, TNF-alpha wells 100 | activation, % at 7.58 µM | 260,000 compounds, 0.37% hits;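 active = mean E-selectin-positive cell signal at least 10% of the positive control, reached in at least 60% of replicates, without over 20% cell loss; inconclusive = no rule given, readout overlaps actives, possibly toxicity-flagged; inactive = the rest, including those meeting only one limit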
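System: HUVEC, human umbilical vein endothelial cells; quantity: 3,000 cells/well; buffer or medium: EGM-2 medium, gelatin-coated wells; dosing: single-point compound dose; detection: immunofluorescence imaging; evaluation: % PE-positive cells; benchmarks: TNF-alpha, DMSO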
Yeast UUG start = modulators of start codon recognition fidelity in yeast; S. cerevisiae UUG-firefly luciferase reporter, luminescence/redox ratio; activity score, % at 18.7 µM; hit rate 0.13% among 350,000; AID 602363;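 active = replicate mean at a twofold rise or more, about +100% in these data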;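 note: firefly luciferase made from a UUG start codon reports start codon fidelity; reporter light over untreated wells divided by growth signal over untreated wells; some hits fall short of that in this replicate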
esBAF inh = Bmi1 luciferase reporter increase in mESCs, primary screen, esBAF inhibitor project, mouse ES cells, Bmi1 luciferase knock-in, single point; 24 h; 100% = twice the neutral-well signal; reporter increase, % at 12.5 µM; 350,000 compounds, 2% hits; AID 602393, 2012; in the data active = activation above about 40%; inconclusive = no clear call, values can overlap the other calls;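 note: 0% = median of the plate's neutral control wells and 100% = double that signal; a rise in the Bmi1 reporter signal indicates esBAF inhibition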
C2C12 statin = suppressors of statin myotoxicity in C2C12 myotubes, primary screen, cell-based, single point, plate reader; C2C12 myotubes + simvastatin, ATP luminescence, 48 h; scaled: DMSO 0, geranylgeraniol control 100; rescue of ATP level, % at 7.49 µM; 330,000 compounds, 0.78% hits;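 active = mean ATP rescue above about 67%, or every replicate alone reaching that limit, limit read from the data, passing the limit was not always enough; inconclusive = no clear call, values can overlap the other calls; inactive = mean under the limit and some replicate under it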;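 note: myotubes were challenged with 10 µM simvastatin during compound exposure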
PGC1a acetyl inh = inhibitors of PGC1a acetylation signal, primary screen, cell-based, U2OS, AlphaScreen, inhibitor mode; inhibition, % at 15.6 µM; 350,000 compounds, 0.17% hits; AlphaScreen anti-acetyl-lysine; with virally co-expressed GCN5 acetyltransferase;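 active = every replicate shows inhibition of at least 40%; inconclusive = mean inhibition at least 40% but some replicate below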;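 note: 0% = neutral control wells and 100% = positive control wells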
PglD DTNB = C. jejuni PglD acetyltransferase inhibitors, primary screen, biochemical, DTNB colorimetric, single point; UDP-N-acetylbacillosamine N-acetyltransferase PglD (Campylobacter jejuni); inhibition, % at 12.5 µM; purified PglD enzyme, DTNB colorimetric CoA detection; 360,000 compounds, 0.098% hits; AID 602405, 2012; in the data active = inhibition above about 16%, passing the limit was not always enough; inconclusive = no clear call, values can overlap the other calls
Active calls of the source: *; ? = inconclusive; . = not tested or not shown. Only some compounds are listed: those with a hit (about 2.8% of all), similar ones and a draw of the others.

compound	PglD DTNB	C2C12 statin	E-selectin induc	esBAF inh	PGC1a acetyl inh	Yeast UUG start
CC(C)NC(=O)Nc1ccc2c(c1)C(=O)N([C@@H](C)CO)C[C@H](C)[C@@H](CN(C)S(=O)(=O)c1ccccc1)OCCCC[C@H](C)O2	0.6	.	0.0	-5.3	10.1	9.4
C[C@H](CO)N1C[C@H](C)[C@@H](CN(C)S(=O)(=O)c2ccccc2)OCCCC[C@H](C)Oc2ccc(N(C)C)cc2C1=O	2.1	91.6*	-0.1	6.9	-0.9	4.6
COc1ccc(S(=O)(=O)N(C)C[C@@H]2OCCCC[C@H](C)Oc3ccc(NC(=O)Nc4cccc5ccccc45)cc3C(=O)N([C@H](C)CO)C[C@H]2C)cc1	6.4	.	33.7*	0.7	-4.2	-10.3
C[C@H]1CCCCO[C@H](CN(C)C(=O)Nc2ccc(F)cc2)[C@@H](C)CN([C@@H](C)CO)C(=O)c2cc(NC(=O)Cc3ccccc3)ccc2O1	-3.2	44.0	?	3.2	18.3	-5.2
C[C@@H]1CN([C@H](C)CO)C(=O)c2cc(N(C)C)ccc2O[C@@H](C)CCCCO[C@@H]1CN(C)S(=O)(=O)c1ccccc1	-0.6	-41.8	0.3	1.3	9.1	-0.4
CC(C)NC(=O)Nc1ccc2c(c1)C(=O)N([C@@H](C)CO)C[C@@H](C)[C@@H](CN(C)S(=O)(=O)c1ccccc1)OCCCC[C@H](C)O2	-4.8	.	-0.1	0.5	105.0*	1.3
C[C@H](CO)N1C[C@H](C)[C@@H](CN(C)Cc2ccccc2)Oc2ccc(NS(=O)(=O)c3ccccc3)cc2C1=O	3.5	4.5	-0.4	-0.9	-3.1	4.7
CCCNC(=O)C[C@H]1CC[C@@H]2[C@H](COc3ccc(NC(=O)NC(C)C)cc3C(=O)N2C)O1	4.2	2.9	0.1	1.5	2.0	-6.7
O=C(C[C@H]1CC[C@H]2[C@@H](COC[C@@H](O)CN2C(=O)c2ccncc2)O1)NCc1cccc(F)c1	4.5	1.5	-0.1	-7.4	1.2	-14.4
COc1ccc2c3c([nH]c2c1)[C@@H](CO)N(C(=O)Nc1ccc(F)cc1)CC31CCN(S(=O)(=O)c2cccc(F)c2)CC1	.	.	0.0	.	.	.
CC(C)NC(=O)Nc1ccc2c(c1)C(=O)N([C@@H](C)CO)C[C@H](C)[C@@H](CN(C)C(=O)c1ccccc1)OCCCC[C@@H](C)O2	3.0	-20.5	-0.1	0.4	7.0	4.5
C[C@@H]1CN([C@@H](C)CO)C(=O)c2cc(NC(=O)Cc3ccccc3)ccc2O[C@@H](C)CCCCO[C@@H]1CN(C)S(=O)(=O)c1ccc(F)cc1	-3.0	101.0*	-0.1	4.2	11.2	-4.9

Of the compounds above, two have nitrogen in an aromatic ring.
compound	PglD DTNB	C2C12 statin	E-selectin induc	esBAF inh	PGC1a acetyl inh	Yeast UUG start
O=C(C[C@H]1CC[C@H]2[C@@H](COC[C@@H](O)CN2C(=O)c2ccncc2)O1)NCc1cccc(F)c1	4.5	1.5	-0.1	-7.4	1.2	-14.4
COc1ccc2c3c([nH]c2c1)[C@@H](CO)N(C(=O)Nc1ccc(F)cc1)CC31CCN(S(=O)(=O)c2cccc(F)c2)CC1	.	.	0.0	.	.	.

(further entries)
compound	PglD DTNB	C2C12 statin	E-selectin induc	esBAF inh	PGC1a acetyl inh	Yeast UUG start
C[C@@H]1CN([C@H](C)CO)C(=O)c2cc(NC(=O)Cc3ccccc3)ccc2O[C@@H](C)CCCCO[C@@H]1CN(C)S(=O)(=O)c1ccc(F)cc1	1.2	55.5	-0.1	6.0	-14.3	2.5
CN(C)C(=O)[C@@H]1[C@@H](CO)[C@@H]2Cn3c(ccc(C4=CCCC4)c3=O)[C@H]1N2C	-2.2	14.7	0.1	4.0	.	-13.7
O=C(Nc1cnc2ccccn2c1=O)c1ccc(Cl)cc1	-3.3	23.9	.	42.8*	-10.1	-17.2
Cc1noc(C)c1NC(=O)N(C)C[C@H]1OCCCC[C@@H](C)Oc2ccc(NS(=O)(=O)c3cn(C)cn3)cc2C(=O)N([C@@H](C)CO)C[C@@H]1C	1.4	-3.3	-0.3	-1.2	-0.3	-7.6
Cc1cccc2c(-c3ccccc3)cc(=O)[nH]c12	1.2	83.8*	.	2.3	3.1	-12.0
O=c1cc(-c2ccccc2)c2ccccc2[nH]1	4.5	-9.7	.	8.1	-1.5	-14.5
Cc1cc(C)cc(N(C(C)C(=O)NCCC2=CCCCC2)S(C)(=O)=O)c1 (stereo not drawn)	-0.1	93.2*	.	6.4	-6.8	0.2
O=C(O)C[C@@H]1C=C[C@H](NC(=O)Nc2cc(F)ccc2F)[C@H](CO)O1	-0.5	-2.1	-0.1	-1.7	1.2	-10.4
Oc1oc(-c2ccccc2)nc1C=NCc1ccccc1	3.1	13.4	.	55.9*	2.0	11.9
